# Where “and” joins values, the source holds several entries; their conditions need not be identical. Equal entries are not always repeated. Where two headings read alike, the source gives them in different places.
# Assays:
# hPIV-3 HN [1] = molecular target: T1, hPIV-3 HN (Human parainfluenza 3 virus, UniProt P08492); type: biochemical, hPIV-3 (strain C-243); details: read-out: hPIV-3 NI (IC50 values)
# hPIV-3 HN [2] = molecular target: T1, hPIV-3 HN; type: binding
# hPIV-3 HN [3] = molecular target: T2, hPIV-3 HN (UniProt P08492); type: biochemical, hPIV-3 (strain C-243); parameters: rows headed: HI Mean IC50; hPIV-3 HN; 3 independent experiments; fold improvement in HI assay; other: versus 6; hPIV-3 HN HI IC50; other: text; other: text, unit given as M
# T2 sequence (P08492 1-572): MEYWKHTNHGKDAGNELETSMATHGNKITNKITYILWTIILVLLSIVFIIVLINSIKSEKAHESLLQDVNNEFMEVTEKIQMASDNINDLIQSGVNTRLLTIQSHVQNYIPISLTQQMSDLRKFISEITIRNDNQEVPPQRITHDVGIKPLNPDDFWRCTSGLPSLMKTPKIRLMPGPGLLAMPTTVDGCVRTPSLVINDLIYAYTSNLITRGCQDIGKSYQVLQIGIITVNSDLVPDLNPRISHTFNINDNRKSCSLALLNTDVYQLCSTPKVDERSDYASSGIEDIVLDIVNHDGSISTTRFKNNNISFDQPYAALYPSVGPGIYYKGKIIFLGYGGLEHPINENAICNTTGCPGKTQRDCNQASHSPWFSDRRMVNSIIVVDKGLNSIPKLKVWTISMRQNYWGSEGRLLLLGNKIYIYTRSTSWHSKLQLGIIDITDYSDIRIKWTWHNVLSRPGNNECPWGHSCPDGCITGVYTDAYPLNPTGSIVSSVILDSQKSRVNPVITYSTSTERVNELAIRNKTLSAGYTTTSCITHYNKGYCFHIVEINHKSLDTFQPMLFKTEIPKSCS
# hPIV-3 HN [4] = molecular target: T2, hPIV-3 HN; type: biochemical, hPIV-3 (strain C-243); parameters: rows headed: NI Mean IC50; hPIV-3 HN; 3 independent experiments; Ki; Km value for MUN; other: whole hPIV-3 virus, [I]=0; fold improvement in NI assay; other: versus 6; hPIV-3 HN NI IC50; other: text; other: text, unit given as M
# hPIV-3 HN [5] = molecular target: T2, hPIV-3 HN; type: biochemical, hPIV-3 (strain C-243); parameters: rows headed: NI Mean IC50; hPIV-3 HN; 3 independent experiments; Ki; Km value for MUN; other: whole hPIV-3 virus, [I]=0; fold improvement in NI assay; other: versus 6; hPIV-3 HN NI IC50; other: text; other: text, unit given as M; remark: listed apart in the source
# [6] = relative to ArH4′, 20 μM hPIV-3 HN, protein:ligand 1:100
smiles,measurement,setting,value
"CC(C)C(=O)N[C@H]1[C@H]([C@H](O)[C@H](O)CO)OC(C(=O)[O-])=C[C@@H]1n1cc(-c2ccccc2)nn1.[Na+] [Compound 10, Sodium 2,6-anhydro-3,4,5-trideoxy-5-isobutyramido-4-(4-phenyl-[1,2,3,]triazol-1-yl)-D-glycero-D-galacto-non-2-enonate]",IC50,hPIV-3 HN [1],1380 nM
same,"relative STD NMR signal intensities, C5 isobutyramido moiety's protons",hPIV-3 HN [2]; range over isobutyramido protons,42-54%
same,"Relative STD NMR effect, ArH4′","hPIV-3 HN [2]; reference signal, 20 μM hPIV-3 HN, protein:ligand 1:100",100%
same,"Relative STD NMR effect, ArH2′ ArH6′",hPIV-3 HN [2]; [6],95%
same,"Relative STD NMR effect, ArH3′ ArH5′",hPIV-3 HN [2]; [6],100%
same,"Relative STD NMR effect, H3",hPIV-3 HN [2]; [6],80%
same,"Relative STD NMR effect, H4",hPIV-3 HN [2]; [6],59%
same,"Relative STD NMR effect, H5",hPIV-3 HN [2]; [6],50% and 49%
same,"Relative STD NMR effect, H6",hPIV-3 HN [2]; [6],49% and 47%
same,"Relative STD NMR effect, H7",hPIV-3 HN [2]; [6],36%
same,"Relative STD NMR effect, H8",hPIV-3 HN [2]; [6],35%
same,"Relative STD NMR effect, H9",hPIV-3 HN [2]; [6],24%
same,"Relative STD NMR effect, H9′",hPIV-3 HN [2]; [6],21%
same,"Relative STD NMR effect, Isoprop-2CH3",hPIV-3 HN [2]; [6],42%
same,"Relative STD NMR effect, Isoprop-CH",hPIV-3 HN [2]; [6],54%
same,"Relative STD NMR effect, Triazole CH",hPIV-3 HN [2]; [6],75%
same,fold improvement in HI assay,hPIV-3 HN [3],~11 fold
same,IC50,hPIV-3 HN [3]; read-out: HI Mean IC50,1460 nM
same,IC50,hPIV-3 HN [3]; read-out: hPIV-3 HN HI IC50,1500 nM
same,fold improvement in NI assay,hPIV-3 HN [4],~8 fold
same,IC50,hPIV-3 HN [4]; read-out: NI Mean IC50,2740 nM
same,Ki,hPIV-3 HN [5],1300 nM
